The source of these data is patent US20220305093A1, “NK-LYSIN PEPTIDE COMPOSITIONS AND METHODS FOR THEIR USE AS ANTIMICROBIAL/ANTIVIRAL AGENTS” (priority 2021, published 2022).

The subject of the assay is Salmonella typhimurium (ATCC 14028). The assay can be described thus: Combination of NK-lysin peptide and human IL-2, micro-dilution growth inhibition. Type of assay: cell-based. The note with it: over 24 hours; IL-2 2 ng/ml, peptide 1×MIC. Here is the method: The standard micro-dilution technique was used to measure the least-inhibitory concentration of NK-lysin peptide and Human IL-2 individually. This method was also used to measure the least-inhibitory concentration of the NK-lysin peptide mixed with IL-2. The 1×MIC of NK-lysin peptide against each bacterial strain was mixed with IL-2 (2 ng/ml).
For orientation: Dilution methods test growth across graded concentrations, often in twofold steps.

Turning to “IL-2: recombinant human interleukin-2 from Sigma Aldrich”, the “antibacterial activity” value is listed as “maintained over the 24 hours”.
